Data reported in article PMC5421360 (Peptides, 2017).

System: NCI-H727 cells
Experiment: MTT proliferation assay, NCI-H727 cells
Assay type: cell-based, human
Conditions: 2 days

IC50, proliferation: 0.5 µg/mL
Substance: Trastuzumab: Herceptin; HER2 inhibitor used for patients with overexpressed HER2
